Test results reported in patent US12612362B2, “Anisomycin derivative and use of anisomycin and derivative thereof as GLP-1R agonist” (SHANXI MEDICAL UNIVERSITY, priority 2021, dated 2026).

Sequences of proteins named here, by UniProt entry; tags and fusion partners are left off. Residues count along the entry.
UniProt P32301, 22-463: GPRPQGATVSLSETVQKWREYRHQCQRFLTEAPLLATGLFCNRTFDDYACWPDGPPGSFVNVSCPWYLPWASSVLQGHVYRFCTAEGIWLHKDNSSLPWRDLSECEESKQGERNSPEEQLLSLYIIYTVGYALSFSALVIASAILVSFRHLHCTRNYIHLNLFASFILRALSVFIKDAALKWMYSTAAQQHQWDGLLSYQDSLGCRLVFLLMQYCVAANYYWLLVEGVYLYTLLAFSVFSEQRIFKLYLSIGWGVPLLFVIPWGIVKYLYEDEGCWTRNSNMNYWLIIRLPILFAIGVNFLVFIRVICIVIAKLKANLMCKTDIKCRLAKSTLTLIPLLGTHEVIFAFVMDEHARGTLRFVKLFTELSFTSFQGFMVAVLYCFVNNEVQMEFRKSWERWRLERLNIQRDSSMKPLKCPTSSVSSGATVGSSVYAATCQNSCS

Molecular target: GLP-1R (Rattus norvegicus, UniProt P32301)
Conditions: 11.1G, 10 μM anisomycin + 100 nM Exendin(9-39), n=7

COc1ccc(C[C@H]2NC[C@H](O)[C@H]2OC(C)=O)cc1 [anisomycin, (2R,3S,4S)-2-[(4-methoxyphenyl)methyl]-3,4-pyrrolidinediol 3-acetate methyl ester]
effect of promoting insulin secretion in presence of Exendin(9-39): Exendin(9-39) blocks the effect of anisomycin promoting insulin secretion
